# Measured values reported in ChEMBL document CHEMBL4706521, “Synthesis of indole inhibitors of silent information regulator 1 (SIRT1), and their evaluation as cytotoxic agents” (Eur J Med Chem, 2020).
# Molecular target: T1, NAD-dependent protein deacetylase sirtuin-2 (Homo sapiens) (UniProt Q8IXJ6)
# T1 sequence (whole entry): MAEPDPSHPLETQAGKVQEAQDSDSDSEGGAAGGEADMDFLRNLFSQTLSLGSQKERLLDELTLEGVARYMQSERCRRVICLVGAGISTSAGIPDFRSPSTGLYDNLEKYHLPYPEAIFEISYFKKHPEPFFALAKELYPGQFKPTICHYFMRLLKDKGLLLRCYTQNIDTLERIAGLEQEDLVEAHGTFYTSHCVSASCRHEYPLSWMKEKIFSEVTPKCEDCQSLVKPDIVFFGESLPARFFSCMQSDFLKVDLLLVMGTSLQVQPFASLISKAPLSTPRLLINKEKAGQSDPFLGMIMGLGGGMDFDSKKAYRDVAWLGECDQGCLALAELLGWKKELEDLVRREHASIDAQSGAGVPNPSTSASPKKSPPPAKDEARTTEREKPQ
# Assay: Inhibition of recombinant human SIRT2 expressed in baculovirus infected SF9 cells expression system using RHKK(Ac)W-NH2 as substrate at 100 uM measured after 20 mins by HPLC method
structure (smiles),measurement,value
CC(C)c1c(CC(N)=O)[nH]c2ccc(Cl)cc12,inhibition,54%
